According to ChEMBL document CHEMBL5236643, “Discovery and characterization of orally bioavailable 4-chloro-6-fluoroisophthalamides as covalent PPARG inverse-agonists” (Bioorg Med Chem, 2023):

Experiments:
[1] = target: T1, Peroxisome proliferator-activated receptor delta (Homo sapiens) (UniProt Q03181); assay: Inverse agonist activity at human PPARdelta expressed in CHO cells co-expressing GAL4-NHR-LBD assessed as transcriptional repression by measuring maximum efficacy preincubated for 6 hrs followed by luciferin addition by luminescence method; type: cell-based; settings: filed as inverse agonist
T1 sequence (whole entry): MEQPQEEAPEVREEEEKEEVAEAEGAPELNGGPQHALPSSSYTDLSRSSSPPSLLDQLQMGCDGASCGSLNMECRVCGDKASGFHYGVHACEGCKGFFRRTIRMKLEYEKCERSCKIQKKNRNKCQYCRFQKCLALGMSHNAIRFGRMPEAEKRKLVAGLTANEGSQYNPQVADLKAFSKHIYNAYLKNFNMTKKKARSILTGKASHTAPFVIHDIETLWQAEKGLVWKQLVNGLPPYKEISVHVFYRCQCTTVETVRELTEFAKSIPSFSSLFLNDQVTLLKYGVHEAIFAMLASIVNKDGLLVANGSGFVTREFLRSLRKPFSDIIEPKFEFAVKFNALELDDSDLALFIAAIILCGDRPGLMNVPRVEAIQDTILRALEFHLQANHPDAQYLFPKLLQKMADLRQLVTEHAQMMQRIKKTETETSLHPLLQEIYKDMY

[2] = target: T2, Peroxisome proliferator-activated receptor alpha (Homo sapiens) (UniProt Q07869); assay: Agonist activity at human PPARalpha expressed in CHO cells co-expressing GAL4-NHR-LBD assessed as transcriptional activation by measuring maximum efficacy preincubated for 6 hrs followed by luciferin addition by luminescence method; type: cell-based; settings: filed as agonist
T2 sequence (whole entry): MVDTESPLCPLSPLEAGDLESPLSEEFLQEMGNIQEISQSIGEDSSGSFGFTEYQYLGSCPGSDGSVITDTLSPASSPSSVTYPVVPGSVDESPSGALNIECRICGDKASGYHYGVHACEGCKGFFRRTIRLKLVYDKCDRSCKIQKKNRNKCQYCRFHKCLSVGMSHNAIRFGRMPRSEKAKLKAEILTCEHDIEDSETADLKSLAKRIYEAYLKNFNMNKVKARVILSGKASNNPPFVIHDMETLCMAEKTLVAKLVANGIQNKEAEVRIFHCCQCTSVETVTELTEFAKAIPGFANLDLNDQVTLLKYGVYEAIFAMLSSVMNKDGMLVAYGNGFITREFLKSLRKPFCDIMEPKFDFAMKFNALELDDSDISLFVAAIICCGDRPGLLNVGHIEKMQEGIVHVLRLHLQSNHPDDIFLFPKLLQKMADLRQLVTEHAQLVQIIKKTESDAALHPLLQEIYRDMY

Emax [1]: 103%
Emax [2]: 1610%
SMILES: Cc1c(C)n(Cc2ccc(Cl)c(O[C@@H](C)C(=O)O)c2)c2ccc(C(=O)N[C@@H](C)c3ccc(C(C)(C)C)cc3)cc12
